Measurements: patent US7803801B2, “Aminopyridine compounds having Syk inhibitory activity” (Japan Tobacco, Inc., priority 2005, dated 2010)

Key:
[1] = biological target: GST-Syk Full Protein (human) (Homo sapiens, UniProt P43405); test: Syk kinase inhibition test (HTRF method); settings: read-out: sykHTRF ave IC50, 100 μM ATP, 30 min room temperature, average
Description: Syk Kinase Inhibition Test (HTRF Method)
After the compounds were serially diluted with dimethylsulfoxide (DMSO), 10 μL of those 10-fold diluted with kinase buffer (20 mM HEPES pH 7.0, 10 mM MgCl2, 50 mM NaCl, 1 mM 2-ME, 0.05% BSA) was added to opti-plate HTRF-96 (Packard) (final DMSO concentration: 2%). […] After allowed to stand still at room temperature for 1 hour, inhibitory effect of a compound against Syk kinase enzymatic activity was evaluated by measuring 665/620 fluorescence ratio to excitation light at 337 nm by ARVO (Wallac).

[2] = system: cultured human mast cells; test: Degranulation inhibition test using cultured human mast cells (IgE cross-linking, β-Hexosaminidase release); settings: read-out: human degranulation ave. IC50, anti-hIgE stimulation, β-Hexosaminidase index, average
Description: Degranulation Inhibition Test Using Cultured Human Mast Cells
(1) Separation of Hematopoietic Stem Cells;
After 10 to 60 mL of umbilical cord blood collected with heparin was diluted with an equivalent amount of buffer (0.5% BSA, 2 mM EDTA/PBS-), it was superposed on Ficoll-Paque (Amersham Pharmacia Biotech) (Ficoll/Blood (1:2)) and mononuclear leukocyte fraction was collected by centrifuging it at 400 G (1350 rpm) 4° C. for 30 minutes. After centrifugal washing (1500 rpm, 5 min, 4° C.×3) with buffer, the number of cells was counted and 0.1 mL of CD34 Progenitor Cell Isolation Kit (Miltenyi Biotec), Reagent A1 (Fc blocking) was added for 1×10^8 cells. After agitation, 0.1 mL of Reagent A2 (CD34 antibody-hapten) was added (final volume 0.5 mL/1×10^8 cells) and incubated at 9° C. for further 15 minutes after agitation. […]
10 μL of a compound 10-fold diluted with IMDM after dissolved in DMSO (DMSO final concentration 0.1%) was added and reacted at 37° C. for 10 minutes. […] After centrifugation, 50 μL/well of the supernatant was collected and stored at −40° C. untill the quantity of degranulation was measured. The measurement of quantity of degranulation was performed using enzymatic activity of β-Hexosaminidase contained in the granulates as an index. […]

IC50 [1]: 100 to 1000 nM | IC50 [2]: 100 to 1000 nM
SMILES: CC(=O)NN1CCN(C(=O)[C@H]2CC[C@H](c3ncc(-c4cccc(Nc5cc(C)ccn5)n4)s3)CC2)CC1
